System: immortalized benign RWPE prostate cells
Experiment: Modified Boyden chamber matrigel invasion assay, RWPE cells
Assay type: cell-based
Settings: pre-treatment of RWPE cells with 10 μM

## C#Cc1cccc(Nc2ncnc3cc(OCCOC)c(OCCOC)cc23)c1 [reference compound]
  decrease in sarcosine-induced invasion: 2 fold

— US20090047269A1, “METABOLOMIC CANCER TARGETS” (The Regents of the University of Michigan, priority 2007, published 2009)
